We go through 20 compounds from ChEMBL document CHEMBL5325398, “Design of Cytochrome P450 1B1 Inhibitors via a Scaffold-Hopping Approach” (J Med Chem, 2023).

The chains behind the UniProt entries cited, without tags or fusion partners. Where a name states a change or a piece, a line headed by the entry shows the natural chain unless it says otherwise.
UniProt P05181: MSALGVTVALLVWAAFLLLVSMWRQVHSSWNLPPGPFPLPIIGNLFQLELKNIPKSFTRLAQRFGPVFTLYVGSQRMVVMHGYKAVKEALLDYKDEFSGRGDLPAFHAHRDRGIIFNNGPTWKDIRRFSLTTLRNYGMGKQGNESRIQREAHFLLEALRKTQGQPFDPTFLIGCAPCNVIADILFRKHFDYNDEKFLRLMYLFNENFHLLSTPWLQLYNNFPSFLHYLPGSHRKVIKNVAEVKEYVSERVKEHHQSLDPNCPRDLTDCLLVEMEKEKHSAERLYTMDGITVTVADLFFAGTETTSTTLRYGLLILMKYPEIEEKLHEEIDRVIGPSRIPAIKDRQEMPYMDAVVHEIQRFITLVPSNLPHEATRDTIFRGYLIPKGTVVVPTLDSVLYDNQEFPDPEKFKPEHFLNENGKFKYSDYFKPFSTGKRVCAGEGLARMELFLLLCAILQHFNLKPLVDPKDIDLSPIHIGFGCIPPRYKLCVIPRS
UniProt P10635: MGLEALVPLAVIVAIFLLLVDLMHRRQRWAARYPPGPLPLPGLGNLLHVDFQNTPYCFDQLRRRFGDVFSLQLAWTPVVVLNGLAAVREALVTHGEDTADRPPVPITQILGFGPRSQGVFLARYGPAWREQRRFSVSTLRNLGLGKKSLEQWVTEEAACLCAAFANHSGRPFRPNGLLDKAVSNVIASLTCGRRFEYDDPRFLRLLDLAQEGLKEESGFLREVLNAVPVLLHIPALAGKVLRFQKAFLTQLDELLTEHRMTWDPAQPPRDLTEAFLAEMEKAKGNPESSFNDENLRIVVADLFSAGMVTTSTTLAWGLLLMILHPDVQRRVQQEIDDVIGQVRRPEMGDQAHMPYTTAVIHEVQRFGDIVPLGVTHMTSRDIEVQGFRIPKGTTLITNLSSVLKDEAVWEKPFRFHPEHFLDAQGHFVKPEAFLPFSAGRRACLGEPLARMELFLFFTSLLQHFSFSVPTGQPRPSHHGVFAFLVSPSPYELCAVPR
UniProt P11509: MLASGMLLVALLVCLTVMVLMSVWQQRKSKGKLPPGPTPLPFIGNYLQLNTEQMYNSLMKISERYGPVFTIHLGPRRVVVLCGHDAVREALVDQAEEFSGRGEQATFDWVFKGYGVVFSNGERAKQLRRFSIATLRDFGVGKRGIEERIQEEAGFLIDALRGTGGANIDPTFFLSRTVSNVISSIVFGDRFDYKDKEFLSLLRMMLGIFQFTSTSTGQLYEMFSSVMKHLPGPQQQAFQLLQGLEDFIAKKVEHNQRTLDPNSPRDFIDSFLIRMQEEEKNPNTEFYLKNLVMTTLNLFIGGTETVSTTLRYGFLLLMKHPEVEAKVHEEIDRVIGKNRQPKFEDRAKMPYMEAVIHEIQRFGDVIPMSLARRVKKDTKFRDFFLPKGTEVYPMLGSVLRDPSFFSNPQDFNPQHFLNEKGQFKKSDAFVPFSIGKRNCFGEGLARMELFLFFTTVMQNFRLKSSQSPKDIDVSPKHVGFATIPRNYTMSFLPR
UniProt P11712: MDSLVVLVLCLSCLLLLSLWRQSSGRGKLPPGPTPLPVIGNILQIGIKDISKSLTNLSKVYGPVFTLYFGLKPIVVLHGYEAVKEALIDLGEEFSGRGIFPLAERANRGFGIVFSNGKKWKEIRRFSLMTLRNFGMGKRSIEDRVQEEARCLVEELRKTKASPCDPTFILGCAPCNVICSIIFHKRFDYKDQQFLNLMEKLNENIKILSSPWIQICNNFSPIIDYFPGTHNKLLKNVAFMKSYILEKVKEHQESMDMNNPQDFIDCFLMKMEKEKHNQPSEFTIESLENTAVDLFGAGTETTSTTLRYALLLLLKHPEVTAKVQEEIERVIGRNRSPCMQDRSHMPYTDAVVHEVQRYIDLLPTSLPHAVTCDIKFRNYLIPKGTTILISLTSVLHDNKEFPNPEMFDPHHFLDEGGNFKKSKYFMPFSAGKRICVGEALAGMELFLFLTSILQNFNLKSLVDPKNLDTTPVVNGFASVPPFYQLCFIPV
UniProt P13584: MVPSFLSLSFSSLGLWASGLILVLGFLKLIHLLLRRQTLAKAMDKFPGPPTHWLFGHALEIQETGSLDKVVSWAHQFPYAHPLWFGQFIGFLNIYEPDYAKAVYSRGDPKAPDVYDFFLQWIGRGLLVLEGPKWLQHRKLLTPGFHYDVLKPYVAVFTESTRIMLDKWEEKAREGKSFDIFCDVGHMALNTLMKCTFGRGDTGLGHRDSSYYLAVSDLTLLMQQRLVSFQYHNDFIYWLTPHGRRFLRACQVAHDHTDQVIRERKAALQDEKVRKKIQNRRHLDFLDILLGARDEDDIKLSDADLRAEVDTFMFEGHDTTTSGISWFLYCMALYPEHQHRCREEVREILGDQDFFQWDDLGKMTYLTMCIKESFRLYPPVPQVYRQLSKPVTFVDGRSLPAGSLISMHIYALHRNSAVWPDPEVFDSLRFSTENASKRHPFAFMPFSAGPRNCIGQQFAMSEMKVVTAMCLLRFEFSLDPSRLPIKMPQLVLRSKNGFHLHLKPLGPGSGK
UniProt P20813: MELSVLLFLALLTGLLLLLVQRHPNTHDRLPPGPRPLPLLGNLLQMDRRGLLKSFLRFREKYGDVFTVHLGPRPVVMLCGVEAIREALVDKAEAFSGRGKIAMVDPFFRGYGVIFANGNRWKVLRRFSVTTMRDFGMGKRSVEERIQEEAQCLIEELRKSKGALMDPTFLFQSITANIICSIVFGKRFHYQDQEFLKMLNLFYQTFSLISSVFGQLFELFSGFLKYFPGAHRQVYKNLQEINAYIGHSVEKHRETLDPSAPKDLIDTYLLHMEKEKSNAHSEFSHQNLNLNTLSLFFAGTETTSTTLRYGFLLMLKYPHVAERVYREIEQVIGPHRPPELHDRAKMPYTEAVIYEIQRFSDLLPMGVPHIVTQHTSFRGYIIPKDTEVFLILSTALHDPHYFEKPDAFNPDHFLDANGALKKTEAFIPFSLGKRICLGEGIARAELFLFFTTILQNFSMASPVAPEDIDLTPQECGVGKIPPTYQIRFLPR
UniProt P20853: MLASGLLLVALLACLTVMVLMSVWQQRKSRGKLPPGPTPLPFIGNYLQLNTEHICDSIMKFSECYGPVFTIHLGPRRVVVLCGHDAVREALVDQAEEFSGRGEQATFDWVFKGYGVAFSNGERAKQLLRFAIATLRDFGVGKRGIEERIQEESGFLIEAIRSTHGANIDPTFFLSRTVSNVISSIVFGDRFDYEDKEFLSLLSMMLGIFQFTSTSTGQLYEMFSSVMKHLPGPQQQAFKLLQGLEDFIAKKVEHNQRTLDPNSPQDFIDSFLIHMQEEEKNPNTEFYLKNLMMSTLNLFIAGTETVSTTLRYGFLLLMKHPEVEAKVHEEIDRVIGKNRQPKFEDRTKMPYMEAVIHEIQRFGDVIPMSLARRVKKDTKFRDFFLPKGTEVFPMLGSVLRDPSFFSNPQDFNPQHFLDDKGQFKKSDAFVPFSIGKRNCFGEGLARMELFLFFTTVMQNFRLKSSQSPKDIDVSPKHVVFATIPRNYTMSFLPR
UniProt P51589: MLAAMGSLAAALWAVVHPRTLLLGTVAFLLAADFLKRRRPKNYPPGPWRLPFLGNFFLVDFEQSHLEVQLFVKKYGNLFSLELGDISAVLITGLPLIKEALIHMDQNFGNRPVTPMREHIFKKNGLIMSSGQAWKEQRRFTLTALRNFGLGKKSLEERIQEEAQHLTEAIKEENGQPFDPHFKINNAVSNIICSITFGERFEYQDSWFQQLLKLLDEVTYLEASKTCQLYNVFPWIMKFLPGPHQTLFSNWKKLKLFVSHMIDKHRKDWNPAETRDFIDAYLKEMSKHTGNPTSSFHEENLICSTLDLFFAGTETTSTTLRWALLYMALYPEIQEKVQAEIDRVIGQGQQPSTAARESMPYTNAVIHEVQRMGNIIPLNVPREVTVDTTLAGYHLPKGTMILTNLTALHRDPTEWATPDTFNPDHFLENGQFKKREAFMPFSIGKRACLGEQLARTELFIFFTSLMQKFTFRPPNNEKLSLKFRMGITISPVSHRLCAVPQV
UniProt P98187: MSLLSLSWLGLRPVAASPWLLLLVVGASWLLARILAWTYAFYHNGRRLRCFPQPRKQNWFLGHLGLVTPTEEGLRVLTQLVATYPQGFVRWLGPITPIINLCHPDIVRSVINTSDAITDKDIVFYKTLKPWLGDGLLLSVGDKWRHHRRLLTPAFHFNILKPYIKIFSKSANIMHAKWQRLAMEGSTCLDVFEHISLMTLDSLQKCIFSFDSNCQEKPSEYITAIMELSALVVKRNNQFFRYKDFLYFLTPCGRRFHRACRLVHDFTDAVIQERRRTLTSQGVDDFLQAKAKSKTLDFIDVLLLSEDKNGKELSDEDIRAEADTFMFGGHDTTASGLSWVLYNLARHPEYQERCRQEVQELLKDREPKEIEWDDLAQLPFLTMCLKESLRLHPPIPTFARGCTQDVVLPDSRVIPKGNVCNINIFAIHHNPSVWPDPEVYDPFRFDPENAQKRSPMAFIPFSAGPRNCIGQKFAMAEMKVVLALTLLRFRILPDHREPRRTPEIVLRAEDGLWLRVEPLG
UniProt Q02928: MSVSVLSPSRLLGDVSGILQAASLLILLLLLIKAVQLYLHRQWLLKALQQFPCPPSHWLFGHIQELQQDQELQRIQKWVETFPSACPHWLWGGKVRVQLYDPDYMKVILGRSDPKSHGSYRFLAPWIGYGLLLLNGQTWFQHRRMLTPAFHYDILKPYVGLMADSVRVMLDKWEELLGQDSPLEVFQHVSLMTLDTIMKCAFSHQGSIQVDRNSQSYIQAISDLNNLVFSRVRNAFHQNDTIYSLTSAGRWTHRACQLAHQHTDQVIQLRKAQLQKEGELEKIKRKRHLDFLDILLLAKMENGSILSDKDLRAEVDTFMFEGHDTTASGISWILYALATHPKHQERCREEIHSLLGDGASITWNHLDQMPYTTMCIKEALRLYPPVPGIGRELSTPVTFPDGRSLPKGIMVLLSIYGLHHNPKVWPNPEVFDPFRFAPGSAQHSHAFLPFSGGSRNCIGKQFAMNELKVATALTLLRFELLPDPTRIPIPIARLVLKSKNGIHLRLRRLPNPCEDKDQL
UniProt Q7Z449: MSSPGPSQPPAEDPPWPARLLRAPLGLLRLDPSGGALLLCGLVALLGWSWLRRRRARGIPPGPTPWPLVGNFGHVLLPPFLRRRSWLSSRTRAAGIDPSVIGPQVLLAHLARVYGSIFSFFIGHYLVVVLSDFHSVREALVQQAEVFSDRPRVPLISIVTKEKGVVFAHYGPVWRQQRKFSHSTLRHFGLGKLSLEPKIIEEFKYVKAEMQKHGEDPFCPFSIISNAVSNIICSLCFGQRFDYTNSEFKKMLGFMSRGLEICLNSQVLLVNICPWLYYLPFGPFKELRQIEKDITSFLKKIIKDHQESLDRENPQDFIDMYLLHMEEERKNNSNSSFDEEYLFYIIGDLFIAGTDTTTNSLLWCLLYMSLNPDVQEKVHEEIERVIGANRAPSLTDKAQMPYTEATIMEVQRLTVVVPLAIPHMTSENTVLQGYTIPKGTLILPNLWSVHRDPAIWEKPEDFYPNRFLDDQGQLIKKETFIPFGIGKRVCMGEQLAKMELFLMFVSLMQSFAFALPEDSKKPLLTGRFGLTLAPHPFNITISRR
UniProt Q8TAV3: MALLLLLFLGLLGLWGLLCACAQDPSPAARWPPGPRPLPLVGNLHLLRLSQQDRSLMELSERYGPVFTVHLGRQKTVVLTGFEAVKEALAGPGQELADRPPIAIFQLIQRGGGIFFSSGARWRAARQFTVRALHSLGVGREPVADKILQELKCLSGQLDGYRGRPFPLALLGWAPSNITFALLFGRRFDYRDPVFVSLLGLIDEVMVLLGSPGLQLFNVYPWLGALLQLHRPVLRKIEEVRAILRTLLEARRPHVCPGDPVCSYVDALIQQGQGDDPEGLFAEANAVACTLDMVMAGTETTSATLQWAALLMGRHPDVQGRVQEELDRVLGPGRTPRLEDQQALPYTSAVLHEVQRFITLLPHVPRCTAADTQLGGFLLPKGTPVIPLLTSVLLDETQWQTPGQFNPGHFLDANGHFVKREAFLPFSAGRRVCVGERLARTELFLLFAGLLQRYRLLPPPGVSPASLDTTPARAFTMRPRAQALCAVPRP
UniProt Q9HB55: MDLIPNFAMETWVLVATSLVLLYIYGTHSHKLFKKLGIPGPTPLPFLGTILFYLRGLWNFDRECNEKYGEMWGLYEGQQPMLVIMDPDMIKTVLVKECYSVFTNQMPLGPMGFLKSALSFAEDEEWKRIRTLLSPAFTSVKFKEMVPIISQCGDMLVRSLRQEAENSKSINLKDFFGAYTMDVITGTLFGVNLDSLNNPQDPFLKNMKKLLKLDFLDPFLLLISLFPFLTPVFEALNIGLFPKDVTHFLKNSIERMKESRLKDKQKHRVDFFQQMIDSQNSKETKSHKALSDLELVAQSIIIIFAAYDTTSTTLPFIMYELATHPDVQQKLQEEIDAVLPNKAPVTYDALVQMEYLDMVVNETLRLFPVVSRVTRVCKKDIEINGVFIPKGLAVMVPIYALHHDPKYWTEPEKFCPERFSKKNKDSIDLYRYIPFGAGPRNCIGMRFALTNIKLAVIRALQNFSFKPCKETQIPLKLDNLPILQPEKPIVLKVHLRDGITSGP

A short description of data set [1]: in vitro. The conditions noted are these: rat, liver microsomes.
Data set [2] is described as follows: in vitro. Conditions: mouse, liver microsomes.
Data set [3] deals with T1, Cytochrome P450 1B1 (Homo sapiens, UniProt Q16678).
T1 sequence (Q16678 whole entry): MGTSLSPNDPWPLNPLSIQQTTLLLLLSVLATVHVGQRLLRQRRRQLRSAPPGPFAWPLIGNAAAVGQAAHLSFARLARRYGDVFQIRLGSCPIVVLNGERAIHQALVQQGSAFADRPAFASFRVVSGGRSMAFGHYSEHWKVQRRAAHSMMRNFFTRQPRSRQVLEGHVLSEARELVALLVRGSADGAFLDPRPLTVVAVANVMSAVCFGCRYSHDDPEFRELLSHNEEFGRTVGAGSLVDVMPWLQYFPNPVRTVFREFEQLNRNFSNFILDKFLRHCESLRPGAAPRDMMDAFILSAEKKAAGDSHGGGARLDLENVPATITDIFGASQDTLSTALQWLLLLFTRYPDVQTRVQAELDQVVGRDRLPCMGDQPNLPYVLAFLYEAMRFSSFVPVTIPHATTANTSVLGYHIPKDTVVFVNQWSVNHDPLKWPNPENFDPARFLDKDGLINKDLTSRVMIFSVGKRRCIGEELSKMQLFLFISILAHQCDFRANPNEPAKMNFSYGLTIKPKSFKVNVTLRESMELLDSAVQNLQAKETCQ

Data set [4] in a line: in vitro. Conditions: mouse, liver microsomes. This is another data set of the same source.
Data set [5] in a line: in vitro. Conditions: rat, liver.
Data set [6] addresses T1, Cytochrome P450 1B1. In words: Inhibition of CYP1B1 (unknown origin) expressed in HEK293-T-REx cells co-expressing POR incubated for 1 hr by resorufin dye based plate reader analysis. It is filed as ADME, cell-based.
The target of another data set is T2, Cytochrome P450 1A1 (Homo sapiens, UniProt P04798).
T2 sequence (P04798 whole entry): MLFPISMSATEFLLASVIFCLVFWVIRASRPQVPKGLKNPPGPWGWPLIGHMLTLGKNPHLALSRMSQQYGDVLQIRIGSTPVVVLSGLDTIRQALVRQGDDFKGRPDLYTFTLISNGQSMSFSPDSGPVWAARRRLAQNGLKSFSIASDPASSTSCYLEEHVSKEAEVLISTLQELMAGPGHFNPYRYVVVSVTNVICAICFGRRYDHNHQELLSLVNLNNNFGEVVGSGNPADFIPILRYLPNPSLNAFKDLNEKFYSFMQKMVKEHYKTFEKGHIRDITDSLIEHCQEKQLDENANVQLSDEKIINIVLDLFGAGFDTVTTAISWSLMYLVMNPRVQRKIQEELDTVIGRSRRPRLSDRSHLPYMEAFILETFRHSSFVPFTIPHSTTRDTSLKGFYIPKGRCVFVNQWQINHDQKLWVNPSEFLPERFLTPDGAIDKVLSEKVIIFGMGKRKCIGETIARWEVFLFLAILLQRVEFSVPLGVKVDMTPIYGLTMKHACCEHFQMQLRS
In words: Inhibition of CYP1A1 (unknown origin) expressed in HEK293-T-REx cells co-expressing POR incubated for 1 hr by resorufin dye based plate reader analysis. It is filed as ADME, cell-based.

The subject of data set [7] is CYP450 (liver microsomes) versus CYP1B1. Nature of the data set: in vitro. Conditions: human, pooled liver microsomes (CYP450 arm).
The next data set deals with Cytochrome P450 1A2 (Homo sapiens, UniProt P05177).
For the next data set, the target named is Cytochrome P450 3A4 (Homo sapiens, UniProt P08684).
The next data set relates to CYP3A4 versus CYP1B1. In words: in vitro.
The test system of the next data set is CYP1A2 versus CYP1B1. In words: in vitro.
Data set [8] is described as follows: Cytotoxicity against HEK293-T-REx cells assessed as reduction in cell viability measured after 72 hrs by resazurin dye based analysis. In kind it is toxicity. Conditions: human.
In the next data set the target is CYP450 (family) (Homo sapiens, UniProt P04798+P05177+P05181+P08684+P10632+P10635+P11509+P11712+P13584+P20813+P20815+P20853+P24462+P24903+P33260+P33261+P51589+P78329+P98187+Q02928+Q08477+Q16678+Q16696+Q5TCH4+Q6VVX0+Q7Z449+Q8TAV3+Q96SQ9+Q9HB55). Nature of the data set: in vitro. The conditions noted are these: pooled liver microsomes.

SMILES strings stand for the structures. Some results are limits rather than exact numbers.

On to `COc1cc(/C=C/c2ccc(OC)cc2OC)cc(OC)c1`, for which the results for the half-life at 100 µM in the data set “in vitro [1]” and in “in vitro [2]” were 14.6 min and 2.6 min, respectively. Moreover, the Kd at Cytochrome P450 1B1 [3] came to 0.63 µM. In the data set “in vitro [4]”, this compound gave an intrinsic clearance (microsomal CLint) at 100 µM of 536 µL/min/mg. Also, the CLint scaled at 100 µM in “in vitro [5]” came to 170 mL/min/kg. Besides, the half-inhibitory concentration (IC50) is 0.066 µM against Cytochrome P450 1B1 [6] and 1.5 µM against Cytochrome P450 1A1.

In turn, `COc1cc(OC)cc(-c2ccnc(-c3cc(OC)cc(OC)c3)n2)c1` gave a Kd at Cytochrome P450 1B1 [3] of 0.32 µM. Also, in [7], the selectivity ratio worked out at 200. In addition, the IC50 was 0.019 µM against Cytochrome P450 1B1 [6] and 3 µM at Cytochrome P450 1A1.

Turning to `COc1ccc(-c2nc(-c3cccnc3)cs2)c(OC)c1`, the 50% inhibitory concentration (IC50) was found to be 0.068 µM against Cytochrome P450 1A2, 1.58 µM against Cytochrome P450 3A4 and 0.025 µM at Cytochrome P450 1A1. For the same compound, at Cytochrome P450 1B1 [3], binding was characterised by a dissociation constant (Kd) of 0.55 µM. For the same compound, the selectivity ratio was determined as 4 in [7], 287 in the data set on CYP3A4 versus CYP1B1 and 12.4 in the data set with CYP1A2 versus CYP1B1.

`COc1cc(OC)cc(-c2csc(-c3cc(OC)cc(OC)c3)n2)c1` showed a dissociation constant (Kd) on Cytochrome P450 1B1 [3] of 0.37 µM. For the same compound, the selectivity ratio in data set [7] is greater than 185. Moreover, the IC50 is 0.054 µM on Cytochrome P450 1B1 [6] and 7.1 µM against Cytochrome P450 1A1.

`COc1ccc(-c2ccccc2-c2ccc(OC)cc2OC)c(OC)c1`: the IC50 at Cytochrome P450 1B1 [6] and against Cytochrome P450 1A1 was greater than 10 µM in each case.

`COc1ccc(-c2nc(-c3ccc(O)cc3)cs2)c(OC)c1`: the IC50 on Cytochrome P450 3A4 is 1.49 µM.

For `COc1ccc(-c2nc(-c3ccc(C#N)cc3)cs2)c(OC)c1`, the IC50 on Cytochrome P450 1A2 is greater than 10 µM; against Cytochrome P450 3A4, greater than 10 µM; at Cytochrome P450 1B1 [6], 0.0002 µM; against Cytochrome P450 1A1, 3.98 µM. For the same compound, on Cytochrome P450 1B1 [3], the dissociation constant Kd was determined as 0.49 µM.

As for `COc1ccc(-c2csc(-c3ccc(OC)cc3OC)n2)cc1`, the Kd on Cytochrome P450 1B1 [3] is 0.39 µM. The values for the IC50 at Cytochrome P450 3A4 and against Cytochrome P450 1A1 were greater than 10 µM and 2.9 µM, respectively.

`COc1cc(OC)cc(-c2ccc(-c3cc(OC)cc(OC)c3)s2)c1`: in data set [7], the selectivity ratio was less than 0.4. The 50% inhibitory concentration (IC50) against Cytochrome P450 1B1 [6] and on Cytochrome P450 1A1 was greater than 10 µM throughout.

For `COc1cc(OC)cc(-c2ccc(-c3cc(OC)cc(OC)c3)cc2)c1`, in data set [8], the concentration for half-maximal inhibition (IC50) at 72 h is 10 µM. Also, the IC50 against Cytochrome P450 1B1 [6] and at Cytochrome P450 1A1 was greater than 10 µM in each case.

On to `COc1ccc(-c2ccc(-c3ccc(OC)cc3OC)cc2)c(OC)c1`, for which the IC50 against Cytochrome P450 1B1 [6] and at Cytochrome P450 1A1 was greater than 10 µM throughout.

Turning to `COc1ccc(-c2nc(-c3ccc(F)cc3)cs2)c(OC)c1`, the IC50 against Cytochrome P450 1A2 is greater than 10 µM; at Cytochrome P450 3A4, greater than 10 µM; at Cytochrome P450 1B1 [6], 0.006 µM; on Cytochrome P450 1A1 it was 3 µM. Further, binding at Cytochrome P450 1B1 [3] was put at a Kd of 0.5 µM. The selectivity ratio in [7] is greater than 1650; with CYP3A4 versus CYP1B1, greater than 1670; in the data set with CYP1A2 versus CYP1B1, greater than 1670.

`COc1cc(OC)cc(-c2cc(-c3cc(OC)cc(OC)c3)ncn2)c1` came in with a dissociation constant (Kd) on Cytochrome P450 1B1 [3] of 0.12 µM. Moreover, the selectivity ratio in data set [7] was 100. Besides, the IC50 against Cytochrome P450 1B1 [6] worked out at 0.1 µM; on Cytochrome P450 1A1, 3 µM.

For `COc1ccc(-c2csc(-c3ccc(OC)cc3OC)n2)c(OC)c1`, the affinity at Cytochrome P450 1B1 [3], expressed as Kd, was 0.34 µM. Besides, the IC50 against Cytochrome P450 3A4 was greater than 10 µM; at Cytochrome P450 1B1 [6], 0.001 µM.

Compound `COc1ccc(/C=C/c2ccncc2)c(OC)c1` gave an IC50 against Cytochrome P450 1B1 [6] of 0.00031 µM.

Consider `COc1cc(OC)cc(-c2cn(-c3cc(OC)cc(OC)c3)nn2)c1`, for which, in data set [7], the selectivity ratio is greater than 9.8. Also, the IC50 is 1.02 µM against Cytochrome P450 1B1 [6] and greater than 10 µM at Cytochrome P450 1A1.

`COc1cc(OC)cc(-c2ccccc2-c2cc(OC)cc(OC)c2)c1`: the half-inhibitory concentration (IC50) at 72 h in data set [8] is 10 µM. Further, the IC50 at Cytochrome P450 1B1 [6] and against Cytochrome P450 1A1 was greater than 10 µM each time.

At Cytochrome P450 1B1 [3], `COc1ccc(-c2cccc(-c3ccc(OC)cc3OC)c2)c(OC)c1` displayed an equilibrium dissociation constant (Kd) of 0.25 µM. Further, the IC50 against Cytochrome P450 1B1 [6] and at Cytochrome P450 1A1 was greater than 10 µM throughout.

In the case of `COc1cc(OC)cc(-c2cccc(-c3cc(OC)cc(OC)c3)c2)c1`, the dissociation constant Kd at Cytochrome P450 1B1 [3] came out at 0.14 µM. Besides, the selectivity ratio in data set [7] was determined as 263. It took 10 µM to reach half-maximal inhibition at CYP450 (family) (IC50 at 120 min). Also, the IC50 at Cytochrome P450 1B1 [6] was 0.038 µM; on Cytochrome P450 1A1 it was greater than 10 µM.

In turn, `COc1cc(OC)cc(-c2cncc(-c3cc(OC)cc(OC)c3)c2)c1` displayed a dissociation constant (Kd) at Cytochrome P450 1B1 [3] of 0.37 µM. Also, in [7], the selectivity ratio is greater than 2000. The figures for the half-inhibitory concentration (IC50) at Cytochrome P450 1B1 [6] and against Cytochrome P450 1A1 were 0.005 µM and 3 µM, respectively.
